Laboratory results published in publication PMC8915830 (Proceedings of the National Academy of Sciences of the …, 2022).

Protein sequences, listed by entry. Tags and fused reporters are not part of them.
UniProt Q92847, whole entry: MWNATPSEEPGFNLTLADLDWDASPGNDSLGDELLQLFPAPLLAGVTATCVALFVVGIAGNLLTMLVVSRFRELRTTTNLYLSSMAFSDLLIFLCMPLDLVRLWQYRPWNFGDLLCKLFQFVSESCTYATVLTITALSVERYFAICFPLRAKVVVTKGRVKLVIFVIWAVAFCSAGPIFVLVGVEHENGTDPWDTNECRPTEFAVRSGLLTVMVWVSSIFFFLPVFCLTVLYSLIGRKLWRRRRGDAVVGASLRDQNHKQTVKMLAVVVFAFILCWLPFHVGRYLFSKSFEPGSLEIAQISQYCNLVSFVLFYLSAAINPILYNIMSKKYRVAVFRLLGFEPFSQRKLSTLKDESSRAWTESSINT

Biological target: hGHSR1aWT (Homo sapiens, UniProt Q92847)
Test: Gαq/11-dependent intracellular Ca2+ mobilization
Assay type: cell-based
Settings: 30 min antagonist pretreatment

JMV2959
inhibition of iCa2+ evoked by EC80 N8279, ghrelin or L585: competitively inhibited
